# In patent US20180259512A1:
# Target: human thyroid stimulating hormone receptor (human) (UniProt P16473)
# Assay: cell-based or functional assay
substance,measurement,value
bovine TSH (from UniProt P01217 25-120; P01223 21-132) (ligand),S/N ratio of luminescence in the presence or absence of bTSH,50 fold
same,minimum detectable quantity for bTSH (aequorin luminescence of CHO cells expressing human TSHR),0.16 µU/mL
same,signal to blank ratio (S/N ratio) of luminescence at 100 µU/mL of bTSH,45 times
